Target: Muscarinic acetylcholine receptor M4 (Rattus norvegicus, UniProt P08485)
Experiment: Positive allosteric modulation of rat M4 receptor expressed in CHO cells co-expressing Gqi5 assessed as increase in acetylcholine-induced calcium mobilization
Format: functional, cell-based

The chains behind the UniProt entries cited, without tags or fusion partners.
UniProt P08485, whole entry: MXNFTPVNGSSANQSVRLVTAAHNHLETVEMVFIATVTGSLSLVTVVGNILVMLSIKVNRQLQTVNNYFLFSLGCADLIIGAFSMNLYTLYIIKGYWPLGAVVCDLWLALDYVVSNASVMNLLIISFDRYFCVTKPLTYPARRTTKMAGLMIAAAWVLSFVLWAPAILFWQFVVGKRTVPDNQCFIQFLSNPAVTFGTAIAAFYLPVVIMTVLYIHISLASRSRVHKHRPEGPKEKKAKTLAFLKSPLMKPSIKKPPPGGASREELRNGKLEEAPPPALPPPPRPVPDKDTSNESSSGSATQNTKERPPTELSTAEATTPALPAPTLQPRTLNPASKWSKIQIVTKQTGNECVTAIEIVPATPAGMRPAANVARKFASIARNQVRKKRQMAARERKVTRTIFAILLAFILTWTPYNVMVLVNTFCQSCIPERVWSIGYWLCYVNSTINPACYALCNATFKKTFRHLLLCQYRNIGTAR

## Cc1nnc2sc(C(=O)NCc3ccc(S(=O)(=O)C(F)(F)F)cc3)c(N)c2c1C
  EC50: 225 nM

Reference: ChEMBL document CHEMBL4177610, “Discovery of a novel 2,4-dimethylquinoline-6-carboxamide M4 positive allosteric modulator (PAM) chemotype via scaffold hopping” (Bioorg Med Chem Lett, 2017)
